From patent US20240335425A1, “PHARMACEUTICAL COMPOSITIONS OF ALPHA-2-ADRENERGIC RECEPTOR AGONISTS AND THEIR USE FOR IMPROVING VISION” (Allergan, Inc., priority 2020, published 2024) come the findings set out here.

Each structure is given as a SMILES string. pEC50: −log10 of the molar value.

In this experiment the target is T1, bovine alpha adrenergic 1A receptor (Bos taurus, UniProt P18130).
T1 construct: expressed in transfected cells
T1 sequence (P18130 1-466): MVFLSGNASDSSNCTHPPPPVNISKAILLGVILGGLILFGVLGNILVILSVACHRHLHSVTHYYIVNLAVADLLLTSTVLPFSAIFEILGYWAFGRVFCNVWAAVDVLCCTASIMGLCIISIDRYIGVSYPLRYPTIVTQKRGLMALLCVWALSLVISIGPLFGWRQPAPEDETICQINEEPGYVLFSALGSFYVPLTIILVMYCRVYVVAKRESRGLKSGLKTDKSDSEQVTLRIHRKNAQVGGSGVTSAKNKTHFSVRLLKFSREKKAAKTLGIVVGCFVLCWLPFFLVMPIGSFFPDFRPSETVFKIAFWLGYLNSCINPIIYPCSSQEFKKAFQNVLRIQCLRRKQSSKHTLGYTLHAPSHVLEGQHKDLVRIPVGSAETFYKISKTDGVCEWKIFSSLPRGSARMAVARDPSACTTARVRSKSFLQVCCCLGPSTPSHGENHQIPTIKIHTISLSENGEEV
Kind of experiment: FLIPR calcium assay, HEK293 cells stably expressing bovine alpha 1A receptor. The experiment is classed as cell-based. The method, then: An in vitro FLIPR (fluorometric image plate reader) assay was performed on several compounds, including the compound of Formula I (entry 1 in Table 1).
Specifically, four HEK293 stable cell lines were used in the FLIPR assay. The HEK293 cell line which stably expressed the bovine alpha adrenergic 1A receptor was used to characterize the alpha1 pharmacology. The alpha-2 adrenergic receptor family is a G coupled G-protein receptor. Therefore, in order to use these cell lines in the calcium based FLIPR assay, the chimeric G-protein Gqi5 was used to force the coupling of the human alpha-2A, alpha-2B, and alpha-2C receptors to the calcium pathway. […]
The receptor activation was initiated by the addition of the appropriate dilutions of compounds and the transient calcium signal was captured. The peak height of the calcium curve was determined and utilized for calculation of EC50 and relative efficacy values using Activity Base software. EC50 was calculated using a 4 Parameter Logistic Equation: y=A+((B−A)/(1+((C/x)^D))) where A and B represents the bottom and top plateau of the curve; C represents the EC50 value; D represents the slope factor; and x and y represent the original x (drug concentration) and y (fluorescence signal, RFU) values.

One may read the pEC50 as the negative decadic logarithm of the EC50, by convention in mol/L.

`CCc1c(N=C2NCCN2)ccc2[nH]cnc12` [Compound 2]: the pEC50 is 5.78.

For the molecule `Brc1c(N=C2NCCN2)ccc2[nH]cnc12` [Compound 3], the pEC50 is 6.00.
